Legend:
MAGL = MAGL (Homo sapiens, UniProt Q99685); assay: Native MS (RapidFire) 2-AG substrate assay, purified human MAGL; assay type: biochemical; settings: read-out: IC50 against purified MAGL ± SEM, Human; SI Table 1
mMAGL = mMAGL (Mus musculus, UniProt O35678); assay: Native MS (RapidFire) 2-AG substrate assay, purified mouse MAGL; settings: read-out: IC50 against purified MAGL ± SEM, Mouse; SI Table 1

Protein sequences, listed by entry. Tags and fused reporters are not part of them.
UniProt Q99685, whole entry: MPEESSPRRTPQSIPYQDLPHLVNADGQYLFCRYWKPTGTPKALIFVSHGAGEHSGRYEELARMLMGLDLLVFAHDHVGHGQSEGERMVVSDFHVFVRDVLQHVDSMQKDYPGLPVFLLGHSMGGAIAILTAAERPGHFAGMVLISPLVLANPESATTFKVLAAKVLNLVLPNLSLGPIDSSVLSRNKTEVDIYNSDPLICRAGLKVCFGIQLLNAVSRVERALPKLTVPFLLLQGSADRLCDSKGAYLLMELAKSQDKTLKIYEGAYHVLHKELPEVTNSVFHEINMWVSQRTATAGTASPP
UniProt O35678, whole entry: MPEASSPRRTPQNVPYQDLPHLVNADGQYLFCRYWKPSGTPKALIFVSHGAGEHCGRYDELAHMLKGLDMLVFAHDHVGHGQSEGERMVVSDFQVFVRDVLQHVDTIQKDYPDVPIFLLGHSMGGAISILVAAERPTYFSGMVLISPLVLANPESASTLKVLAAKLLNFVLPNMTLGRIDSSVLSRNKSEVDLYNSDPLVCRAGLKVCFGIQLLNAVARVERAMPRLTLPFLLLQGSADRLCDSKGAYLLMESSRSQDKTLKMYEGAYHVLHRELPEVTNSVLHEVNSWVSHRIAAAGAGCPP

Row | Structure (SMILES) | IC50 (MAGL) [µM] | IC50 (mMAGL) [µM]
1 | O=C1CO[C@H]2CCN(C(=O)N3CCC(OC4=C5C=CC=[N+]5[B-](F)(F)n5cccc54)CC3)C[C@H]2N1 | 6.32 | > 10
2 | O=C1CO[C@H]2CCN(C(=O)N3CC4(CCC(=CC5=C6C=CC=[N+]6[B-](F)(F)n6cccc65)CC4)C3)C[C@H]2N1 |  | 0.00185
3 | O=C1NC2(CO1)CN(C(=O)N1CC3(CC(OC4=C5C=CC=[N+]5[B-](F)(F)n5cccc54)C3)C1)C2 |  | 0.00471
4 | O=C(OC(C(F)(F)F)C(F)(F)F)N1CC2(CC(=CC3=C4C=CC=[N+]4[B-](F)(F)n4cccc43)C2)C1 |  | 0.00941
5 | O=C1CO[C@H]2CCN(C(=O)N3CC=C(C4=C5C=CC=[N+]5[B-](F)(F)n5cccc54)CC3)C[C@H]2N1 | > 10 | > 10
6 | O=C1CO[C@H]2CCN(C(=O)N3CC(COC4=C5C=CC=[N+]5[B-](F)(F)n5cccc54)C3)C[C@H]2N1 |  | > 10

Reference: publication PMC11951083, “Highly Specific Miniaturized Fluorescent Monoacylglycerol Lipase Probes Enable Translational Research” (Journal of the American Chemical Society, 2025)
